# TrxR1 substrate: substrates of rat thioredoxin reductase 1; Potency, µM (highest dose often 114 µM), without a hit: at the top dose activity change, negative = substrate turnover; O89049; purified TrxR1 substrate turnover, NADPH consumption readout; actives 0.01% (n = 390,000); further: potency means the concentration at half of the fitted maximal effect; on the % scale 0 is the no-effect control and ±100 the full control effect; nearly all actives have a fitted effect of over 50% in size
#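 Rat TrxR1, dispensed at 90 nM, was prereduced with 400 uM NADPH (final) for 5 min at ~22 deg C, then incubated with compound 15 min before 400 uM selenite. A first-read NADPH fluorescence drop versus no-compound background flagged substrates.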
# rTrxR1 inhibitor: inhibitors of rat thioredoxin reductase 1; AID 588453; actives 1% (n = 390,000); recombinant rTrxR1, NADPH fluorescence consumption, selenite substrate; Potency, µM (series often up to 114 µM), without a hit: at the top dose activity change, negative = inhibition, actives largely listed as inhibitors; O89049; further: potency means the concentration at half of the fitted maximal effect; on the % scale 0 is the no-effect control and ±100 the full control effect; nearly all actives have a fitted effect of over 65% in size
#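 Rat TrxR1 (90 nM in the dispensed reagent) was pre-reduced with 400 uM NADPH for 5 min at room temperature, then incubated with compound for 15 min. After 400 uM selenite was added, NADPH fluorescence (Ex 340/Em 450 nm) was followed for 8 min.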
# ClpP mod: qHTS Assay for Activators of ClpP | actives 1.9% (n = 340,000) | Potency, µM (top dose mostly 57.5 µM), without a hit: top-dose activity change, negative = active | purified B. subtilis ClpP, FRET peptide cleavage, 20 min; active means well fitted falling curve with a large enough effect; inconclusive means small, poorly fitted or top-dose-only effect; inactive means no such curve, though single readings can be large or run the other way; further: potency means the concentration at half of the fitted maximal effect; the source files actives as falling curves though it sought activators and does not explain the sign; nearly all actives have a fitted effect of over 65% in size
#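 FRET quenching reversal measured ClpP activation: 10 microg/mL B. subtilis ClpP at pH 8 with the FRET-FV decapeptide, read at 430 nm after 320 nm excitation. The 20-min minus 0-min signal was scaled between DMSO/no-enzyme wells and ADEP (5.8 microM final).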
# Apoferritin bind: candidate novel general anesthetic via apoferritin binding; actives 0.074% (n = 350,000); P02791; apoferritin/1-aminoanthracene competitive binding, fluorescence; Potency, µM (highest dose often 77.5 µM), inactives show at the top dose activity change, negative = displacement, hits mostly inhibitors; AID 485281; further: potency means the concentration at half of the fitted maximal effect; on the % scale 0 is the no-effect control and ±100 the full control effect; nearly all actives have a fitted effect of over 20% in size
#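 10 uM apoferritin + 50% sat. 1-AMA, PBS; cpd 10 min RT; Ex380/Em535 endpoint; normalized to free probe vs complex; 4-param Hill fit; propofol titration as pos. ctrl.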
# miR-21 reporter: miR-21 reporter, rising signal | 340,000 tested, under 10 active | AID 2288 | HeLa miR-21 FLuc reporter, luciferase, 48 h | Potency, µM (titrated, usually from 38.3 µM), for inactives: at the highest dose reporter change, positive = more light; active = well fitted rising curve with a large enough effect; inconclusive = small, poorly fitted or top-dose-only effect; inactive = no such curve, though single readings can be large or run the other way;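 further: % of control where 0% means no effect; miR-21 action dims this reporter so a rising signal means less miR-21 action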
#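 Compounds were titrated across several concentrations (up to approximately 40 uM) and incubated 48 hours with HeLa miR-21-FLuc reporter cells (miR-21 target sequence downstream of FLuc, endogenous miR-21). Readout was firefly luciferase luminescence after lytic detection reagent.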
# * marks the source's active call; other numbers are inactive results; ? = inconclusive; . = no result given; [ ] = remark or other dose. Hits are enriched below; roughly 2.5% of the tested compounds scored in any of these assays. Unless noted, the call rests on the fitted dose curve; in most records, active means well fitted curve in the direction sought with a large enough effect; inconclusive means small, poorly fitted or top-dose-only effect, or another doubt; inactive means no such curve, though single readings can be large; an effect the other way counts as inactive or inconclusive.
# Assay codes – A = TrxR1 substrate; B = rTrxR1 inhibitor; C = ClpP mod; D = Apoferritin bind; E = miR-21 reporter
(1) O=C1NC(=O)N(Cc2ccccc2)C(=O)/C1=C\C=C\c1ccco1
  A: -6%[57.1 µM] | B: ? | C: . | D: ? | E: 26%

(2) Cc1ccc(OCCn2cccc2/C=C2/C(=O)NC(=O)N(Cc3ccco3)C2=O)cc1
  A: 4% | B: 40µM* | C: . | D: -20% | E: -24%

(3) Cc1ccc(N2C(=O)NC(=O)/C(=C\C=C\c3ccco3)C2=O)cc1C
  A: -2% | B: 50µM* | C: -1% | D: -22% | E: ?

(4) O=C1NC(=O)N(Cc2ccco2)C(=O)/C1=C/C=C/c1ccco1
  A: -4% | B: 35µM* | C: 1% | D: -2% | E: 4%

(5) Cn1cccc1/C=C1\C(=O)NC(=O)N(Cc2ccco2)C1=O
  A: -2% | B: -27% | C: 2% | D: -17% | E: 7%

(6) CNC(=O)Oc1ccc(-c2cn3cc(C)ccc3n2)cc1
  A: 74% | B: 10% | C: 13µM* | D: -3% | E: ?

(7) CCCN1CCc2cccc3c2[C@H]1Cc1ccc(O)c(O)c1-3
  A: ? | B: 24µM* | C: ? | D: . | E: .

(8) C=CCN1CCc2cccc3c2C1Cc1ccc(O)c(O)c1-3 (centres undefined)
  A: . | B: ? | C: . | D: -16% | E: .

(9) O=C1NC(=S)N(C2CC2)C(=O)/C1=C/c1ccc2c(c1)CCN2CCCCl
  A: -10% | B: 7.9µM* | C: -7% | D: -10% | E: 2%

(10) C=CCN1C(=O)/C(=C/c2ccc3c(c2)CCCN3CCC)C(=O)NC1=S
  A: 0%[57.1 µM] | B: 10µM* | C: 1% | D: -3% | E: -6%

(11) CC(C)(C)N1C(=O)NC(=O)/C(=C\c2ccc3c(c2)CCN3CCCCl)C1=O
  A: -5%[57.1 µM] | B: ? | C: . | D: -5% | E: 5%

(12) CCN1C(=O)/C(=C/c2ccc3c(c2)CCN3CCCCl)C(=O)NC1=S
  A: -5% | B: 28µM* | C: -1% | D: -16% | E: -4%

(13) C=CCN1C(=O)/C(=C\c2ccc(N3CCOCC3)o2)C(=O)NC1=S
  A: -18% | B: -27% | C: -26% | D: -4% | E: 1%

(14) Cc1ccc(F)cc1NC(=O)c1ccc(Cn2nc(N3CCN(c4ccccc4)CC3)ccc2=O)o1
  A: 2%[57.1 µM] | B: 8%[57.1 µM] | C: -4% | D: -16% | E: ?

(15) Cc1ccc2c(c1)CC1(CN2C)C(=O)NC(=O)N(CCC2=CCCCC2)C1=O (centres undefined)
  A: 12%[57.1 µM] | B: 3%[57.1 µM] | C: 16µM* | D: ? | E: -3%

(16) Cc1ccc2c(c1)CC1(CN2C)C(=O)NC(=O)N(C(C)C)C1=O (centres undefined)
  A: -6%[57.1 µM] | B: -2%[57.1 µM] | C: 1% | D: -5% | E: -7%

(17) O=C(Nc1ccc2nc(SCC(=O)N3CCOCC3)sc2c1)c1ccc(Cl)cc1
  A: 9% | B: 41% | C: 26% | D: -14% | E: 20%

(18) Cc1ccc(Cl)cc1N1CCN(C(=O)c2cn(C)c(=O)c3c2c2ccccc2n3C)CC1
  A: 28% | B: 18% | C: 28µM* | D: -1% | E: -3%

(19) CC(=O)O[C@H]1C[C@@H]2CCC3C(CC[C@@]4(C)[C@H]3C[C@H]([N+]3(C)CCCCC3)[C@@H]4OC(C)=O)[C@@]2(C)C[C@@H]1[N+]1(C)CCCCC1 (some centres undefined)
  A: . | B: 8% | C: . | D: . | E: .

(20) COc1cc2c(cc1/C=C/[N+](=O)[O-])OCO2
  A: 5% | B: ? | C: -1% | D: -13% | E: ?

(21) O=[N+]([O-])/C=C/c1ccc2c(c1)OCO2
  A: 12%[57.1 µM] | B: 10µM* | C: . | D: . | E: .

(22) CCOC(=O)c1cc(-c2ccccc2)n(CCCC(=O)Nc2ccc(C)c(C)c2)c1C
  A: 3%[57.1 µM] | B: 28%[57.1 µM] | C: -17% | D: 43% | E: ?

(23) C[C@H]1COC2=C1C(=O)C(=O)c1c2ccc2c1CCCC2(C)C
  A: -7% | B: 28µM* | C: -9% | D: ? | E: -3%

(24) CCOC(=O)c1ccccc1NC(=O)N(Cc1ccc(CC)cc1)Cc1cn[nH]c1-c1ccc(OC)cc1
  A: 5% | B: 13% | C: 35µM* | D: -1% | E: -2%

(25) COC(=O)NC/C=C\c1nc(CC/C=C\C(=O)O[C@H]2C[C@H]3CC(=O)O[C@@H](/C=C\CC(C)C)C[C@@H]4CC[C@H](C)[C@H](C[C@@H](OC)C[C@H](C2)O3)O4)co1
  A: . | B: . | C: . | D: -1%[15.3 µM] | E: .

(26) Cc1cc(OC(=O)c2ccco2)c2c3c(c(=O)oc2c1)CCCC3
  A: -4% | B: 3% | C: 22µM* | D: ? | E: 9%

(27) Cc1cc(OC(=O)c2cccs2)c2c3c(c(=O)oc2c1)CCCC3
  A: -1% | B: 16% | C: -3% | D: -9% | E: -5%

(28) Cc1cc(OCC(=O)O)c2c3c(c(=O)oc2c1)CCCC3
  A: 251% | B: ? | C: ? | D: 59% | E: -4%

(29) Cc1ccc(-n2nc(C)cc2NC(=O)COc2cc(C)cc3oc(=O)c4c(c23)CCC4)cc1
  A: 33% | B: 24% | C: 25µM* | D: -21% | E: 23%

(30) CCCOC(=O)COc1cc(C)cc2oc(=O)c3c(c12)CCC3
  A: 7% | B: 9% | C: 25µM* | D: -14% | E: 2%

(31) Cc1ccc(C)c(S(=O)(=O)c2nnn3c2nc(N2CCN(C)CC2)c2sccc23)c1
  A: 3% | B: 16% | C: -5% | D: ? | E: ?

(32) Cc1cc2ccccc2n1-c1ccc(C(=O)N2CCC(C(=O)NCc3ccc(Cl)cc3)CC2)s1
  A: 0%[57.1 µM] | B: 16%[57.1 µM] | C: ? | D: ? | E: ?

(33) Cc1ccc(N2C(=O)NC(=O)/C(=C\c3ccoc3)C2=O)cc1
  A: 4%[57.1 µM] | B: -11%[57.1 µM] | C: . | D: -8% | E: 1%

(34) Cc1ccc(N2C(=O)NC(=O)/C(=C/c3ccc(OC(=O)c4cccs4)cc3)C2=O)cc1
  A: -2% | B: 32µM* | C: 3% | D: -24% | E: 0%

(35) COc1ccc(N2C(=O)NC(=O)/C(=C/c3cccc(OC(=O)c4cccs4)c3)C2=O)cc1Cl
  A: -8% | B: 10µM* | C: 4% | D: ? | E: 1%

(36) COc1ccccc1N1C(=O)NC(=O)/C(=C/c2ccc3c(c2)Cc2ccccc2-3)C1=O
  A: 8% | B: ? | C: . | D: -19% | E: -22%

# 3 of the compounds above, screen by screen:
31	Cc1ccc(C)c(S(=O)(=O)c2nnn3c2nc(N2CCN(C)CC2)c2sccc23)c1
33	Cc1ccc(N2C(=O)NC(=O)/C(=C\c3ccoc3)C2=O)cc1
36	COc1ccccc1N1C(=O)NC(=O)/C(=C/c2ccc3c(c2)Cc2ccccc2-3)C1=O

assay / compound | 31 | 33 | 36
TrxR1 substrate | 3% | 4%[57.1 µM] | 8%
rTrxR1 inhibitor | 16% | -11%[57.1 µM] | ?
ClpP mod | -5% | . | .
Apoferritin bind | ? | -8% | -19%
miR-21 reporter | ? | 1% | -22%
